Results: patent US9549932B2, “2-(morpholin-4-yl)-1,7-naphthyridines” (BAYER PHARMA AKTIENGESELLSCHAFT, priority 2014, dated 2017)

Protein sequences, listed by entry. Tags and fused reporters are not part of them. Chains listed by the source or under a name are the forms on record and can include a tag or linker.
UniProt Q13535, other isoform, or with tags, fused parts or gaps: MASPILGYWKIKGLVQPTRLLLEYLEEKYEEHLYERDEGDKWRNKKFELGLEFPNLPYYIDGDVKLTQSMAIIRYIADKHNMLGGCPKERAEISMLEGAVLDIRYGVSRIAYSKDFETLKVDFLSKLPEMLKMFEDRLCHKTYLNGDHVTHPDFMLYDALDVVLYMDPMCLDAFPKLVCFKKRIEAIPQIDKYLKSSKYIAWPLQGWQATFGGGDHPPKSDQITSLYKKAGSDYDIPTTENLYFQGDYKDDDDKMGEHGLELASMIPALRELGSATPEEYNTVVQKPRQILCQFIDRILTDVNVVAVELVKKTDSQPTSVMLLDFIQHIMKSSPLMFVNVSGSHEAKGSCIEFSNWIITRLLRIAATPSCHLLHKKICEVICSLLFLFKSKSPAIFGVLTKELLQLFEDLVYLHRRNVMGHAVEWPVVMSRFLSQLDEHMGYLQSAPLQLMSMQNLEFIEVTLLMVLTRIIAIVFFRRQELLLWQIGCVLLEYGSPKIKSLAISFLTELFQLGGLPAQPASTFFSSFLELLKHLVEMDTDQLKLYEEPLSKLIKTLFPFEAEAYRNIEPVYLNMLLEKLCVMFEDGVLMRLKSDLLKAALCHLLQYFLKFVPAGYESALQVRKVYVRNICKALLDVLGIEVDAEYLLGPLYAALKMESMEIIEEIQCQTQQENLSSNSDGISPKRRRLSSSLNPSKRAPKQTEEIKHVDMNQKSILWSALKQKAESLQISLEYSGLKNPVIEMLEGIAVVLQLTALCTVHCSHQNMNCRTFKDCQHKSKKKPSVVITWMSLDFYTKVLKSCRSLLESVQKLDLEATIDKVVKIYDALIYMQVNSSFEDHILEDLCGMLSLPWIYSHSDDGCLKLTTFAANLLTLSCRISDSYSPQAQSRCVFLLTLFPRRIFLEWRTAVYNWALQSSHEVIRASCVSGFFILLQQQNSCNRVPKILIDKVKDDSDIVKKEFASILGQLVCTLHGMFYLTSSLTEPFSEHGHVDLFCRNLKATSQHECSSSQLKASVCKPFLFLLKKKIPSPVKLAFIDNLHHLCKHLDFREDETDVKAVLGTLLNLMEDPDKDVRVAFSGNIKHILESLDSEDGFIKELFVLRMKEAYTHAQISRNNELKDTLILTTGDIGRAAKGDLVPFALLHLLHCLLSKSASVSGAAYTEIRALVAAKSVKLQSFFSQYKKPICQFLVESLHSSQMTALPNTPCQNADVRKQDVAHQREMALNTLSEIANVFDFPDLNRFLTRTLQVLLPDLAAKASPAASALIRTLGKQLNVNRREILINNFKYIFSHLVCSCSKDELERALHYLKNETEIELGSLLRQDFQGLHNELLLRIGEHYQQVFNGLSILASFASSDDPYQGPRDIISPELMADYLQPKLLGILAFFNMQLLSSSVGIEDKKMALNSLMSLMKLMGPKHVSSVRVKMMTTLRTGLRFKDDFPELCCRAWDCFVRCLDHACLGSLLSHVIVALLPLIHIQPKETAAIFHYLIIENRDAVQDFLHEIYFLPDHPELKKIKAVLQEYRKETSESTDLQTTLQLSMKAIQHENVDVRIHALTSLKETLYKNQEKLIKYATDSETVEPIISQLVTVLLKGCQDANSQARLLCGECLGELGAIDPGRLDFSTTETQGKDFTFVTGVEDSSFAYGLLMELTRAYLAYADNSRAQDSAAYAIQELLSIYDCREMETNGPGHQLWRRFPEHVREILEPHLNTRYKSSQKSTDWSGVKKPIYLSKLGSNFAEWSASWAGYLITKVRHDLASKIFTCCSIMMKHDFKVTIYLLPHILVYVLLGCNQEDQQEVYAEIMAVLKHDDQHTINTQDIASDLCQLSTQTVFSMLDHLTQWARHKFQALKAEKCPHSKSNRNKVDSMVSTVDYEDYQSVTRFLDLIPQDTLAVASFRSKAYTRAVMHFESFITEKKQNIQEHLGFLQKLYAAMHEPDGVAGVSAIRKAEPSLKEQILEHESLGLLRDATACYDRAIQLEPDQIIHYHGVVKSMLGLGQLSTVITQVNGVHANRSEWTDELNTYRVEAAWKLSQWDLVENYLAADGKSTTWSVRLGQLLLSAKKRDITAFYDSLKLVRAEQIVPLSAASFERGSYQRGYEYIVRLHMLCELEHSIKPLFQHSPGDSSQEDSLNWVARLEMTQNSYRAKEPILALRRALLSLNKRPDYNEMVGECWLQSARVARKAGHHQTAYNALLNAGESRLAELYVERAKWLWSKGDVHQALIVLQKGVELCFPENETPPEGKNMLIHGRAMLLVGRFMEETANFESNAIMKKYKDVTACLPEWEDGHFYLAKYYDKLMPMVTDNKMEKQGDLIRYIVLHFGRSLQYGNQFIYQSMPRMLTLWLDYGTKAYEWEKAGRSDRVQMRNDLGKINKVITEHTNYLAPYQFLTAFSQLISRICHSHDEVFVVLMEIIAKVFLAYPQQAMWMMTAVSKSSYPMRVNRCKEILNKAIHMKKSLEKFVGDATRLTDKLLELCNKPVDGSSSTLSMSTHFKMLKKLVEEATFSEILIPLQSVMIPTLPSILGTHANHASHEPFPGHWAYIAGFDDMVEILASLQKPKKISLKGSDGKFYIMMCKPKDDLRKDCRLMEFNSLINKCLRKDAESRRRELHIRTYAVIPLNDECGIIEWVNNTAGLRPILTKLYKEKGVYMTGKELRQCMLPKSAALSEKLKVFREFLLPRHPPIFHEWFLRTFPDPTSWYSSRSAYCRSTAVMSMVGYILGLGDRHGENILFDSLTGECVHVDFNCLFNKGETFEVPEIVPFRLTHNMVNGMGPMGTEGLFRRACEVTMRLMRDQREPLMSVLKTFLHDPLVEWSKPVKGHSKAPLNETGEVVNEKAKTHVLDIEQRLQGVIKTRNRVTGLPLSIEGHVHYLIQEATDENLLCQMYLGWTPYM

molecular target: full-length human ATR protein (Homo sapiens (Human), UniProt Q13535); experiment: Binding assay ATR (TR-FRET tracer displacement); settings: tracer A
Description: To determine of binding activity of the test compounds, full-length human ATR protein was expressed and purified together with ATRIP as described above. Furthermore, a fluorescently labelled compound (either tracer A or B as described above) was used as a tracer molecule. Detection of the binding event of the tracer was achieved by time-resolved fluorescence energy transfer (TR-FRET). We used an anti-GST-Terbium antibody (CisBio) that binds to the GST-tag at the N-terminus of ATR-kinase. […] Displacement of the fluorescent tracer by a test compound leads to a reduction of the TR-FRET-signal.
For the assay 50 nl of a 100-fold concentrated solution of the test compound in DMSO was pipetted into a black low volume 384well microtiter plate (MTP, Greiner Bio-One, Frickenhausen, Germany). […] The ATR-working solution was incubated for 30 min at 22° C. prior to dispensing to pre-form the complex of antiGST-Tb+GST-ATR+ATRIP. Then, 3 μl of the ATR-working solution were added to the test compound and the mixture was incubated for 10 min at 22° C. to allow pre-binding of the test compounds to ATR/ATRIP. Then, 2 μl of a 100 nM solution of either tracer A or B in assay buffer were added to the ATR-working solution. The resulting mixture was incubated for 30 min at 22° C. […] The dilution series were prepared separately before the assay on the level of the 100 fold concentrated solutions in DMSO by serial 1:3.4 dilutions in duplicate values for each concentration. IC50 values were calculated by a 4 parameter fit using standard software (GraphPad prism or equivalent).

With `CN(C)c1ccc(-c2cc(N3CCOCC3)nc3c(-c4ccn[nH]4)nccc23)cn1` [Example 187, N,N-dimethyl-5-[2-(morpholin-4-yl)-8-(1H-pyrazol-5-yl)-1,7-naphthyridin-4-yl]pyridin-2-amine] as the compound, how does the IC50 read?
Its IC50 is 96.8 nM.

`CC(C)n1cc(-c2cc(N3CCOC[C@H]3C)nc3c(-c4ccn[nH]4)nccc23)cn1` [Example 255, 2-[(3R)-3-methylmorpholin-4-yl]-4-[1-(propan-2-yl)-1H-pyrazol-4-yl]-8-(1H-pyrazol-5-yl)-1,7-naphthyridine] was tested. Which IC50 did it give?
The IC50 was 42.7 nM.

Which IC50 does the source give for `CN(C)c1cccc(-c2cc(N3CCOCC3)nc3c(-c4ccn[nH]4)nccc23)c1` [Example 320, N,N-dimethyl-3-[2-(morpholin-4-yl)-8-(1H-pyrazol-5-yl)-1,7-naphthyridin-4-yl]aniline] here?
The IC50 was 46.8 nM.

How did the IC50 turn out when `CC1CCCN(c2cc(N3CCOCC3)nc3c(-c4ccn[nH]4)nccc23)C1` (stereo not drawn) [Example 414, 4-(3-methylpiperidin-1-yl)-2-(morpholin-4-yl)-8-(1H-pyrazol-5-yl)-1,7-naphthyridine] was run?
Its IC50 is 90.8 nM.

With `Cc1c(-c2cc(N3CCOCC3)nc3c(-c4ccn[nH]4)nccc23)cnn1C` [Example 272, 4-(1,5-dimethyl-1H-pyrazol-4-yl)-2-(morpholin-4-yl)-8-(1H-pyrazol-5-yl)-1,7-naphthyridine] as the compound, how does the IC50 read?
Its IC50 is 21.3 nM.

How did the IC50 turn out when `Cc1cc(-c2cc(N3CCOC[C@H]3C)nc3c(-c4ccn[nH]4)nccc23)cnc1F` [Example 92, 4-(6-fluoro-5-methylpyridin-3-yl)-2-[(3R)-3-methylmorpholin-4-yl]-8-(1H-pyrazol-5-yl)-1,7-naphthyridine] was run?
The IC50 was 13.7 nM.

How did the IC50 turn out when `c1cc(-c2cc(N3CCOCC3)nc3c(-c4ccn[nH]4)nccc23)cc(-n2cccn2)c1` [Example 336, 2-(morpholin-4-yl)-8-(1H-pyrazol-5-yl)-4-[3-(1H-pyrazol-1-yl)phenyl]-1,7-naphthyridine] was run?
The IC50 was 120 nM.

For `C[C@@H]1COCCN1c1cc(-c2ccc(F)nc2)c2ccnc(-c3ccn[nH]3)c2n1` [Example 94, 4-(6-fluoropyridin-3-yl)-2-[(3R)-3-methylmorpholin-4-yl]-8-(1H-pyrazol-5-yl)-1,7-naphthyridine], which IC50 is on record?
The IC50 was 13.7 nM.

Which IC50 does the source give for `C[C@@H]1COCCN1c1cc(-c2cnn(-c3ccccc3)c2)c2ccnc(-c3ccn[nH]3)c2n1` [Example 265, 2-[(3R)-3-methylmorpholin-4-yl]-4-(1-phenyl-1H-pyrazol-4-yl)-8-(1H-pyrazol-5-yl)-1,7-naphthyridine] here?
The IC50 was 74.6 nM.
